Target: mMC4R (Mus musculus, UniProt P56450)

Amino acid sequences for entries named in this document (tags omitted).
UniProt P56450, whole entry: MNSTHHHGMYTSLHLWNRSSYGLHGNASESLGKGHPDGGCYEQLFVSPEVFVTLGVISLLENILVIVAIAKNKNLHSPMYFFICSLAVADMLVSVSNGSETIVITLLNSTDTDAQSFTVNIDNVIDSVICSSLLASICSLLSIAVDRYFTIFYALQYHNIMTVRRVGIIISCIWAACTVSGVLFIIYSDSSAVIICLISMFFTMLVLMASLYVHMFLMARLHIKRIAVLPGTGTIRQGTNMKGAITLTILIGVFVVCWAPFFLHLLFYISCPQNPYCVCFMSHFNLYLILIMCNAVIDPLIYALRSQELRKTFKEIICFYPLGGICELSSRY

## C[C@@H]1NC(=O)[C@H](CN)NC(=O)[C@H](Cc2ccccc2)NC(=O)[C@H](Cc2ccccc2)NC(=O)[C@H](CCCNC(=N)N)NC(=O)[C@@H]2CCCN2C(=O)[C@H]2CCCN2C(=O)[C@H](Cc2ccccc2)NC1=O [Compound 5, c[Pro-Arg-Phe-Phe-Dap-Ala-Phe-DPro]]
  Kb: 1.26 nM
